Results as given in US20260092097A1, “MULTIMERIC IL-15 SOLUBLE FUSION MOLECULES AND METHODS OF MAKING AND USING SAME” (published 2026).

Target: anti-murine CD8α mAb
Assay: ELISA, H57 capture, anti-CD8α mAb probe

## OT1-CD8-T2M fusion protein complex (from UniProt P01731 28-196; P10300 22-175) (Fc fusion)
  EC50 (read off the curve): 300 nM
